Consider one compound from article PMC10103840 (2023).

Molecules are shown by their SMILES. “And” between values parts separate entries of the source, which are not always exact repeats. Identical values can stand only once.

Data set [1] can be described thus: System adherence test (empty perfusion chamber, maternal circuit only). In kind it is in vitro ADME. To be noted: % of initial concentration, 5 μM in PM, no placental tissue, 240 min, n = 3.
Another data set has as its system placental tissue. Briefly: Histopathological evaluation of perfused placentae. Set-up: species or system human.
For the next data set, the system named is human placental barrier. To be noted: pH 7.2.
For a further data set, the system named is BeWo cells. To be noted: ref Spiess et al., 2022b; cited from earlier work.
Setting [2] is: non-perfused area of same placenta.

As for `CC(C)=CCC[C@]1(C)[C@@H](CC=C(C)C)C[C@]2(CC=C(C)C)C(=O)C(CC=C(C)C)=C(O)[C@@]1(C(=O)C(C)C)C2=O` [Hyperforin, hyperforin], the “Compound lost / adhering to the perfusion equipment” value in data set [1] is 65.4% and 65.4% ± 0.7%. Moreover, in the data set with placental tissue (after perfusion), the “Extravasations into villous stroma (in words)” value was “no extravasations into villous stroma” and the “Ruptures of villous vessels (in words)” value was “no ruptures of villous vessels”. Moreover, in the data set on placental tissue (setting [2]), the “Dilatated intervillous space in non-perfused” value was 60% and 50% and 70% and 80%; the “Hydropic changes in non-perfused” value was 0% and 1%; the “Intervillous spaces without blood in non-perfused” value is 30% and 40% and 60%; the “Vacuolated trophoblast in villi: in non-perfused too?” value was 0% and 1%. Further, the “Thrombi in vessels of stem villi (in words)” value in the data set with placental tissue (perfused and non-perfused) is “no thrombi detectable”. In the data set with placental tissue (perfused area), the Dilatated intervillous space was 90% and 70%; the “Intervillous spaces without blood” value is 70% and 95% and 99% and 80%. For the same compound, in the data set with placental tissue (perfused area, individual experiments), the “Emptiness of villous vessels” value is 95% (2×) and 90% and 80%. For the same compound, in the data set on human placental barrier, the “Concentration in the fetal compartment” value was 7.2 % of initial concentration. The “Concentrations inhibiting FSK-induced placental cell differentiation” value in the data set with BeWo cells is on record as at least 1 µM.
